Only a part is listed here, and it is no random draw. Calls of active or inactive are those of the source.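 The calls were made as follows: active = mean inhibition above about 25% (limit read from the data); inactive = the rest.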

The nature of the assay: Wnt3a reporter signal inhibition, confirmation, counter-screen for Gli-SUFU antagonist project, Wnt-LIGHT cells, luminescence, single concentration (AID 651995). Particulars: Wnt3a-driven luciferase reporter, at 6.25 µM, stronger effect = higher value. Background: A counterscreen serves to expose hits that act by an unwanted route or on another target.
One may read the inhibition as the percentage by which the read-out fell short of the control. With `CC1=C2N=C(C=C3N=C(C(C)=C4[N-][C@@](C)([C@@H]5N=C1[C@](C)(CCC(=O)NC[C@@H](C)OP(=O)([O-])O[C@H]1[C@@H](O)[C@@H](n6cnc7cc(C)c(C)cc76)O[C@@H]1CO)[C@H]5CC(N)=O)[C@@](C)(CC(N)=O)[C@@H]4CCC(N)=O)[C@@](C)(CC(N)=O)[C@@H]3CCC(N)=O)C(C)(C)[C@@H]2CCC(N)=O.[C-]#N.[Co+3]`, the inhibition is active: 45.2%.

For the origin of these results see PubChem BioAssay AID651995 (Sanford-Burnham Center for Chemical Genomics, 2013).
